Apparent affinities of Ab-14 variants for a coronavirus HR2 peptide

Source: Engelhart et al. 2022 (doi:10.1038/s41597-022-01779-4), MIT Lincoln Laboratory and A-Alpha Bio; data file from the FLAb repository.

Target peptide (SARS-CoV-2 spike, HR2 region): PDVDLGDISGINAS

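The starting antibody came from a phage panning campaign against this peptide. AAYL49 was designed without a model: most single CDR substitutions and a random sample of double and triple ones. In AlphaSeq, yeast of one mating type display the scFv and yeast of the other type display the target. Pairs that bind mate more often; barcode pairs of the diploids are counted by sequencing. The ratio of observed to expected reads was calibrated, replicate by replicate, on BCL2-family standards whose Kd was known from biolayer interferometry. There are three technical replicates.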

Parent scFv Ab-14: VH joined to VL by a 15-residue (Gly4Ser)3 linker. Changes lie in the heavy chain CDRs alone.
VH: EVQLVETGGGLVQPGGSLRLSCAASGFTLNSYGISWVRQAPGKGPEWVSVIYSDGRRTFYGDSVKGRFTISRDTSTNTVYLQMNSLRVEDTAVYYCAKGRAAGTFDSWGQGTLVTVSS
VL: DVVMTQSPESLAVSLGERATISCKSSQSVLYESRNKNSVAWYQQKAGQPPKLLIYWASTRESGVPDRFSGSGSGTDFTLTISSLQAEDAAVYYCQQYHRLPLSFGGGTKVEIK

Each variant is given by its three heavy chain CDRs, as the data file delimits them; those of the parent are GFTLNSYGIS, VIYSDGRRTFYGDSVK, GRAAGTFDS. Scale: log10 of Kd in nM, estimated from mating counts; low values are strong binders. Where no diploid with the target was found in that replicate, the entry reads "ND": below detection, most likely a poor binder, though not proof of it. Nonspecific signal, from three strains lacking the peptide, appeared in 15% of pairings of library AAYL49, centred on 4.06 (5% of these signals below 2.83); values are not corrected for it. Also given: how often the same scFv was detected with the empty control strains, with their mean in brackets.

| CDR-H1 | CDR-H2 | CDR-H3 | log10 Kd (nM) by replicate | empty controls |
|---|---|---|---|---|
| GFTLNSYGIS | FIYSDGRRDFYGDSVK | GRAAGTFDK | ND / 5.58 / ND | 3 of 9 (3.70) |
| GFTLNSYGIS | VIYSDGRRTFYADSVK | GRAAGTFRD | 0.74 / 0.98 / 0.83 | 7 of 9 (5.02) |
| GFTLNSYGCS | VIYSDGHRTFYGDSKK | GRAAGTFDS | 4.30 / 4.82 / ND | 5 of 9 (4.38) |
| GFTLNSYGIS | VIYSDGRRTFYGDYVK | GRAAGWFIS | ND / ND / ND | 0 of 9 |
| GFTLNSYGIT | AIYSDGRRTFYGDSVK | GRAAGTKDS | ND / ND / ND | 0 of 9 |
| YFTLNSYGIS | VIYAQGRRTFYGDSVK | GRAAGTFDS | ND / ND / ND | 4 of 9 (4.34) |
| GFTLNSYGIS | DIYSDGWRTFYGDCVK | GRAAGTFDS | ND / 4.60 / ND | 1 of 9 (2.93) |
| GFTLNSYGIS | VIYGDGRRTRYGDSVK | GRAAVTFDS | ND / ND / ND | 0 of 9 |
| GFTLNSYGIE | VIYSDGRRTEYGDSVK | GRAAGTFDR | 4.18 / ND / ND | 1 of 9 (3.56) |
| GFTLQSYGIS | VIYSNGRRTFYGHSVK | GRAAGTFDS | ND / 4.12 / ND | 3 of 9 (3.79) |
| GFTLNNYGIS | VIYSQGRRTFYGDSVK | GRAAGTFDS | ND / 5.48 / 5.80 | 7 of 9 (4.05) |
| GFTLNSYGIS | VCYSDGRRTFYGDSVK | GRAEGTFNS | ND / ND / 4.76 | 1 of 9 (3.07) |
| GFTLNSQGIS | VIYSDGRNEFYGDSVK | GRAAGTFDS | ND / ND / ND | 0 of 9 |
| GFTLNSYGCS | VIYSDGRRTFYGDSAK | GRAAGTCDS | ND / ND / ND | 2 of 9 (3.39) |
| GTTLNSYGIR | VIYSDGRRFFYGDSVK | GRAAGTFDS | 3.42 / ND / ND | 2 of 9 (4.34) |
| GFKLNSYGIS | VIYLDGRRTFYGDSVI | GRAAGTFDS | 4.40 / ND / ND | 3 of 9 (3.93) |
| GFTLNSYGIS | VIYSDGRTTFYNDSVK | GRDAGTFDS | ND / ND / 4.27 | 0 of 9 |
| GFTLPSYGIS | VIYSDGDRTRYGDSVK | GRAAGTFDS | ND / ND / ND | 0 of 9 |
| GFDLNSYGIS | VIYSDGPRTFYGDSVK | GRAAGTFDV | ND / ND / ND | 2 of 9 (3.79) |
| GFTLNSYGIS | VIYGDGRRTFYGDSVK | NRAAGVFDS | ND / ND / ND | 0 of 9 |
| GFTQNSYGIS | EIYSDGRRTFYGDSVG | GRAAGTFDS | ND / ND / ND | 0 of 9 |
| GFTLNSYGIS | VIYSDSRRTFYGDSRK | GRAAGCFDS | ND / ND / ND | 0 of 9 |
| GFTLNSLGIS | VIYSLGRRTFYGDSVK | GRAEGTFDS | ND / ND / ND | 0 of 9 |
| GFELNSYGIS | VIYSDGRRTHYGDSVK | GRATGTFDS | ND / ND / ND | 2 of 9 (3.76) |
| GFTLNSYGIS | VIYSDGLRTFYGDSVK | GDAAGCFDS | 2.41 / 2.61 / 3.01 | 0 of 9 |
| GFTLNSYGIS | VIYSDFERTFYGDSVK | GRAAGTFDS | 3.65 / 3.99 / ND | 3 of 9 (4.03) |
| GFTLNSTGIS | VIYSDGRKTFYGDSVK | GRAAGRFDS | ND / ND / ND | 1 of 9 (3.63) |
| GETLNSYGIS | VIYSDGRRTFYGDSVK | GRNAGTFDQ | 1.21 / 1.31 / 1.29 | 0 of 9 |
| HFTENSYGIS | VRYSDGRRTFYGDSVK | GRAAGTFDS | ND / ND / ND | 5 of 9 (4.22) |
| GFTLNSYGIS | YIYSDGCRTFYGHSVK | GRAAGTFDS | ND / ND / ND | 0 of 9 |
| MFTLNSYGVS | HIYSDGRRTFYGDSVK | GRAAGTFDS | ND / ND / ND | 2 of 9 (3.67) |
| GFTLNSYGIS | VIYSDIRRTFYGDSVA | GRAAGTRDS | ND / ND / ND | 0 of 9 |
| GFSLNSYGIS | VIYSDGRYTFYGDSVK | GRAAGTFDS | 3.10 / 3.07 / 3.26 | 4 of 9 (4.53) |
| GFTLNSYGIS | VICSDGRRRFYGDSVK | GRAAGYFDS | ND / ND / ND | 4 of 9 (3.62) |
| GFTLVSYGIS | VIYSQGRRTFYGDSVK | SRAAGTFDS | ND / 3.86 / ND | 0 of 9 |
| GFTLNSYGIS | VIGDDGRRTFYGDSVK | GRAAGTFDT | ND / ND / ND | 0 of 9 |
| GFTLFSYGIS | VIYSDGRRTFYRDSVK | GRLAGTFDS | 1.70 / 1.59 / 1.69 | 1 of 9 (5.17) |
| GFTLNSYGIS | VIYSWYRRTFYGDSVK | GRAAGTFDV | ND / ND / ND | 2 of 9 (3.32) |
| GFTLNSYGIC | VHYSDGRRTFYGDSVK | GRAAGTMDS | ND / ND / 4.69 | 4 of 9 (4.16) |
| GVTLNSYGIQ | VIYSDGRRTFYGDSVK | GRAAGTFDG | ND / ND / 4.27 | 2 of 9 (4.57) |
| GFTLNSYGIS | VIASDGRRTFYGDSVP | GRAAGTNDS | ND / 5.63 / 3.68 | 6 of 9 (4.73) |
| GVTLNSYGIS | VIYSDGRRTFYGDSVK | GRAAGTFPL | ND / ND / ND | 0 of 9 |
| GFTLNDYGIS | VIYSKGRRTFYGDSVK | GRFAGTFDS | ND / ND / ND | 1 of 9 (4.69) |
| GFTLNSYGIS | VIYSDGRRTMYGDSVK | GTYAGTFDS | 1.56 / 1.59 / 1.76 | 1 of 9 (4.57) |
| VFTLNSYGIS | VIYSDGRRTFYGISVK | GRAEGTFDS | ND / ND / ND | 1 of 9 (2.11) |
| CFTLNSYGIS | VPYSDGRRTFYWDSVK | GRAAGTFDS | ND / ND / ND | 0 of 9 |
| GFTLNSYGIS | VIYMDGRRTFGGDSVK | GRAAGKFDS | ND / ND / ND | 1 of 9 (3.58) |
| GFMLNSYGIS | VIYSDNHRTFYGDSVK | GRAAGTFDS | ND / 3.29 / ND | 1 of 9 (4.16) |
| GETLNSYGIS | VIYSDGRRTFYLDSVK | GRWAGTFDS | 0.80 / 0.87 / 0.91 | 0 of 9 |
| GFTLNSYGIS | VIYSDFRRTFYGDSSK | GRAAKTFDS | ND / ND / ND | 2 of 9 (4.37) |
| GFTLNKYGLS | VIYVDGRRTFYGDSVK | GRAAGTFDS | ND / ND / ND | 1 of 9 (2.16) |